This data set can be described thus: in vivo. Conditions: female, Sprague Dawley, rat, plasma, iv, 1.5 mg/kg, female SD rats, single bolus i.v.

Broadly, the AUC is the area under the concentration-time curve, a measure of exposure. As usually defined, the clearance is the rate of elimination divided by the concentration. Lower therefore signals a low capacity for elimination. For orientation: half-life means the time in which the quantity being followed falls by half. Higher therefore signals slow decline. One may read the Vd as a proportionality between amount in the body and measured concentration, not a real space. For the molecule `Cc1ccccc1-n1c(Cn2cnc3c(N)ncnc32)nc2cccc(C)c2c1=O` (single isomer, unassigned) [Compound 1(R), 2-((6-amino-9H-purin-9-yl)methyl)-5-methyl-3-o-tolylquinazolin-4(3H)-one], for the setting “AUCall”, the AUC worked out at 1010 ± 55 ng·h/mL. For the same molecule, the clearance (CL) is 24.6 mL/min/kg. Also, for the setting “T½”, the half-life is 7 ± 1.1 h. The molecule further returned a Vd (Vz (volume of the terminal phase)) of 14.8 L/kg.

The record behind these values is patent US8440677B2, “Atropisomers of 2-purinyl-3-tolyl-quinazolinone derivatives and methods of use” (Gilead Calistoga LLC, priority 2009, dated 2013).
